The record followed here is patent US11331295B2, “High-dose statins for age-related macular degeneration” (MASSACHUSETTS EYE AND EAR INFIRMARY, priority 2015, dated 2022).

This experiment relates to ARPE-19 cells. Kind of experiment: Fluorescence recovery after photobleaching (FRAP) to assess cell membrane fluidity. Conditions: 50 μM atorvastatin, 3 hours; BODIPY FL C12.

As for `CC(C)c1c(C(=O)Nc2ccccc2)c(-c2ccccc2)c(-c2ccc(F)cc2)n1CC[C@@H](O)C[C@@H](O)CC(=O)O` [atorvastatin], the “recovery of fluorescence in the membrane after photo-bleaching” value is “increased”.
